Reference: PMC5796027, “Thiopurine Drugs Repositioned as Tyrosinase Inhibitors” (International Journal of Molecular Sciences, 2017)

Sequences of proteins named here, by UniProt entry; tags and fusion partners are left off. Residues count along the entry.
UniProt C7FF04, 1-392: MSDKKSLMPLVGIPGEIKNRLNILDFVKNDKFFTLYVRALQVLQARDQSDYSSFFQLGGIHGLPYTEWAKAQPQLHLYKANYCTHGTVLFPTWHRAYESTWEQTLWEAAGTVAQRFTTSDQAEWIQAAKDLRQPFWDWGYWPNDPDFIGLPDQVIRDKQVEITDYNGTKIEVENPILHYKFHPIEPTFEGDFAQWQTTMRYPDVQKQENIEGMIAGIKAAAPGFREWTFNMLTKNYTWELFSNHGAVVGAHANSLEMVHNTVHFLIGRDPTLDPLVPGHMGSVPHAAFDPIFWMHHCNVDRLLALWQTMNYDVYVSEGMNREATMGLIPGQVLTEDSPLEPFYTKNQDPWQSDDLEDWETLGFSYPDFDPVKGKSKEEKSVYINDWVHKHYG

Columns and labels:
[1] = system: human hepatocytes; details: up to several tens of μM ref 43; cited from earlier work
[2] = system: B16F10 murine melanoma cells; details: up to 50 μM, 48 h
[3] = biological target: mushroom tyrosinase (Agaricus bisporus, UniProt C7FF04); experiment: Mushroom tyrosinase enzyme inhibition assay (dopachrome absorbance at 475 nm); format: biochemical; details: −1.37 × (Log10Ki)/HA, HA = number of heavy atoms
Protocol: Enzyme activity and kinetics experiments with inhibitors—All of the reagents used in this study were purchased from ChemBridge (San Diego, CA, USA), Sigma-Aldrich (St. Louis, MO, USA), or Tokyo Chemical Industry (Tokyo, Japan). The reaction solution for the enzyme assay was prepared with 200 nM mushroom tyrosinase and inhibitors in phosphate-buffered saline (PBS), containing 5% dimethyl sulphoxide and 0.01% (w/v) Triton X-100. After incubating the mixture at 30 °C for 10 min, 500 μM L-tyrosine was added as the substrate. […] The IC50 was evaluated by analysing different concentrations of each inhibitor. The inhibitory constants (Ki) were converted from the IC50 values using the Km obtained from kinetics experiments and substrate concentration based on the Cheng–Prusoff equation [60]. A series of substrates at concentrations of 0.25, 0.33, 0.4, 0.5, 0.67, and 1 mM were used to obtain the respective velocities (V) for enzyme inhibitory kinetics. The concentrations of each inhibitor were varied and comprised the range that included the IC50 value. […]

**Q.** For Nc1nc2nc[nH]c2c(=S)[nH]1 [Thioguanine, thioguanine], which “cytotoxicity in human hepatocytes” value [1] is on record?
**A.** less cytotoxic up to several tens of μM

**Q.** What about the “cytotoxicity (MTT reduction)” value [2] of the same compound?
**A.** without apparent cytotoxicity

**Q.** What about the “LE, ligand efficiency” value [3] of the same compound?
**A.** 0.49
